Data: paper PMC10838953

Assays:
[1] = test system: 786-O cells; settings: 4 μM, 48 h
[2] = test system: A375 cells; settings: 4 μM, 48 h

**Q.** Which results are given for `O=C(O)c1ccc2c(c1)nc(Nc1cccc(Cl)c1)c1ccncc12` [CX-4945, silmitasertib]?
**A.** proliferation, cell death and apoptosis [1]: only a moderate effect on 786-O cell growth and was a poor apoptosis inducer; proliferation, cell death and apoptosis [2]: almost completely insensitive
